An excerpt weighted towards active compounds, which were near 1.5% of everything screened.
PABP1 MLLE inh – inhibitors of microRNA-mediated deadenylation, human PABP1 MLLE binding | GST-MLLE / FITC-PAM2 fluorescence polarization | P11940 | 360,000 compounds, 0.36% hits | inhibition, % at 20 µM | AID 588489; in the data active = inhibition above about 35%, passing the limit was not always enough;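 note: plate controls were DMSO wells with GST-MLLE for no effect and wells lacking GST-MLLE protein for full effect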
UUG fidelity – modulators of yeast start codon fidelity, primary screen, whole organism, S. cerevisiae, single point, plate reader | S. cerevisiae UUG-firefly luciferase reporter, luminescence/redox ratio | activity score, % at 18.7 µM | hit rate 0.13% among 350,000;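 active = replicate mean at a twofold rise or more, about +100% in these data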;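 note: firefly luciferase made from a UUG start codon reports start codon fidelity; reporter light over untreated wells divided by growth signal over untreated wells; some hits fall short of that in this replicate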
eIF4H FP inh – inhibitors of RNA binding by human eIF4H | Q15056 | eIF4H fluorescence polarization binding assay | inhibition, % at 35 µM | 290,000 compounds, 0.94% hits | AID 2012;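 note: calls also rest on retests at 20 µM and on dose response follow-up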
PABP polyA inh – blocks human PABP binding to poly(A) RNA; calls only at 35 µM; 290,000 compounds, 1% hits; fluorescence polarization; P11940;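 note: calls also rest on retests at 20 µM and on dose response follow-up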
DSG3 Ab inh – human desmoglein-3 autoantibody binding inhibition. P32926. DSG3-coupled beads, scFv-anti-DSG3-GFP binding, flow cytometry; hits give low values. binding (percent of control), % at 10 µM. 310,000 compounds, 0.48% hits;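 active = binding more than 3 SD below its plate's average and above zero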;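 note: hits lower antibody fragment binding to DSG3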
Starred values were filed as active, the others as inactive; i = inactive; nt = no result; + = active, no number. Unless noted, the rule behind the calls is not given here.

PABP1 MLLE inh	UUG fidelity	eIF4H FP inh	PABP polyA inh	DSG3 Ab inh	SMILES
nt	4.0	nt	nt	nt	CC(C)C#Cc1cnc2c(c1)C(=O)N([C@@H](C)CO)C[C@@H](C)[C@H](CN(C)C(=O)Nc1ccc(F)cc1)O2
nt	4.4	nt	nt	nt	O=C(C[C@@H]1C=C[C@H](NC(=O)Nc2cc(F)ccc2F)[C@H](CO)O1)Nc1ccccc1
-22.6	-17.5	68.5	+	98.6	O=C(O)CSc1cc(C(=O)c2ccccc2O)cn2c(=O)c3c(-c4ccccc4)csc3nc12
-0.8	-18.1	6.1	i	103.2	NC(=O)CSc1nc(N)c2c3c(sc2n1)CCCCC3
-14.1	nt	61.0	i	100.1	CCOC(=O)c1sc2nc3c(SCC(=O)O)cc(C(=O)c4ccccc4O)cn3c(=O)c2c1C
-99.1	-8.4	-9.8	i	-17.2*	Nc1nc(SCc2nnc(SCC(=O)O)n2-c2ccccc2)nc2sc3c(c12)CCCC3
nt	0.5	nt	nt	nt	Cc1ccc(S(=O)(=O)N(C)C[C@@H]2Oc3c(NC(=O)c4cnccn4)cccc3C(=O)N([C@H](C)CO)C[C@H]2C)cc1
nt	2.1	nt	nt	nt	C[C@@H]1CN([C@H](C)CO)S(=O)(=O)c2ccc(-c3ccc(C#N)cc3)cc2O[C@@H]1CN(C)C(=O)CN(C)C
5.9	5.4	2.3	i	105.0	CN(C)/C=C1/C=C(c2ccccc2)OC1=O
31.0	-25.0	53.2*	+	106.5	CCC1=C/C(=C/N(C)c2ccccc2)C(=O)S1

The closing 4 compounds of the section before come first, to join the parts:
PABP1 MLLE inh	UUG fidelity	eIF4H FP inh	PABP polyA inh	DSG3 Ab inh	SMILES
nt	0.5	nt	nt	nt	Cc1ccc(S(=O)(=O)N(C)C[C@@H]2Oc3c(NC(=O)c4cnccn4)cccc3C(=O)N([C@H](C)CO)C[C@H]2C)cc1
nt	2.1	nt	nt	nt	C[C@@H]1CN([C@H](C)CO)S(=O)(=O)c2ccc(-c3ccc(C#N)cc3)cc2O[C@@H]1CN(C)C(=O)CN(C)C
5.9	5.4	2.3	i	105.0	CN(C)/C=C1/C=C(c2ccccc2)OC1=O
31.0	-25.0	53.2*	+	106.5	CCC1=C/C(=C/N(C)c2ccccc2)C(=O)S1
17.8	-4.1	nt	nt	103.9	CCC1(c2ccccc2)CN(C)C1=O (configuration not stated)
24.0	-16.9	83.8*	+	89.6	CCN1c2ccccc2N(C)C1(C)c1ccccc1 (configuration not stated)
-6.0	0.9	5.2	i	105.8	CN1C(=O)N(C)C2(c3ccccc3)NC(=O)NC12c1ccccc1 (configuration not stated)
13.3	nt	66.8*	+	83.8	CN1c2ccccc2N(C)C1(C)c1ccccc1
nt	10.6	nt	nt	nt	C[C@@H]1CN([C@@H](C)CO)C(=O)c2cc(NS(=O)(=O)c3ccc(F)cc3)ccc2O[C@@H](C)CCCCO[C@H]1CN(C)Cc1ccc(C(=O)O)cc1
nt	-0.3	nt	nt	nt	COCC(=O)N(C)C[C@H]1Oc2cc(-c3ccncc3)ccc2S(=O)(=O)N([C@@H](C)CO)C[C@H]1C
nt	-10.5	nt	nt	nt	COc1ccc(NC(=O)Nc2ccc3c(c2)CC(=O)N([C@@H](C)CO)C[C@H](C)[C@@H](CN(C)C(=O)Nc2ccccc2)O3)cc1
-6.8	nt	54.8*	+	98.9	COc1ccc(-c2ccc(SCC(=O)Nc3nnc(C)s3)nn2)cc1
3.2	-18.1	1.1*	i	99.7	COc1ccc(CCNC(=O)CSc2ccc(-c3ccncc3)nn2)cc1
-7.7	nt	53.7*	+	119.9	CC(=O)c1c(N2CCN(Cc3ccccc3)CC2)nc(=S)n(-c2ccccc2)c1C
nt	-6.6	nt	nt	nt	Cc1ccc(S(=O)(=O)Nc2ccc3c(c2)C(=O)N([C@H](C)CO)C[C@@H](C)[C@@H](CN(C)Cc2ccncc2)OCCCC[C@@H](C)O3)cc1
13.1	-13.4	77.4	+	113.0	CSCC(C)N1CCC(n2nccc2NC(=O)CCOc2ccccc2)CC1 (configuration not stated)
-3.7	-0.3	26.2	i	100.0	COCC(C)N1CCC(n2nccc2NC(=O)CCOc2ccccc2)CC1 (configuration not stated)
-3.5	nt	-2.0	i	101.8	O=[N+]([O-])c1cc(/C=N\Nc2nc(-c3ccccc3)cs2)ccc1O
-27.0	-27.0	68.1*	+	104.4	Cc1csc(N/N=C/c2ccc(O)c([N+](=O)[O-])c2)n1
17.8	3.3	4.9	i	103.4	CCc1c(C)sc(NC(=O)c2cc(C)on2)c1C#N
36.4*	-8.9	-8.2	i	88.1	CCc1c(C)sc(NC(=O)c2cc(C3CC3)on2)c1C#N
nt	-4.9	nt	nt	nt	C[C@H](CO)N1C[C@H](C)[C@H](CN(C)C(=O)Nc2ccc(C(F)(F)F)cc2)OCCCC[C@H](C)Oc2ccc(NC(=O)Nc3ccc4c(c3)OCO4)cc2C1=O
nt	7.3	nt	nt	nt	C[C@@H]1CCCCO[C@@H](CN(C)C(=O)NC2CCCCC2)[C@H](C)CN([C@H](C)CO)C(=O)c2cc(NS(=O)(=O)c3cccs3)ccc2O1
37.1*	nt	15.0	i	83.5	CCOc1ccc(-c2csc(NNC3=NCCCCC3)n2)cc1
-8.4	-34.7	73.5*	+	96.3	CCCCCCCn1c(NC(=O)CC)nc2ccccc21
nt	-3.2	nt	nt	nt	C[C@H](CO)N1C[C@H](C)[C@@H](CN(C)Cc2ccc(Cl)c(Cl)c2)Oc2ccc(N(C)C)cc2CC1=O

Screening results as filed in PubChem BioAssay.
